The source of these data is patent US4740588A, “Novel substrate peptides” (Washington University, priority 1986, dated 1988).

What is called Km is the substrate concentration at which the rate is half of its maximum.

The data set relates to NCCCC[C@H](NC(=O)[C@@H]1CCCN1C(=O)[C@H](CCCCN)NC(=O)[C@H](CO)NC(=O)[C@H](CCCCN)NC(=O)[C@H](CO)NC(=O)[C@H](CO)NC(=O)CN)C(N)=O. Briefly: purified protein, by the assay type. Particulars: other: peptide as acyl acceptor; partially purified yeast enzyme; 1 μCi [3H]-myristic acid per tube; 30.0 °C.

With “Yeast Myristoylating Enzyme (Saccharomyces cerevisiae S288C)”, the Km turned out to be 40 µM.
